Values of other authors, collected in patent publication US12663426B2, “Method and composition for measurement of nitric oxide” (The University of Chicago, priority 2019, dated 2026).

Conditions: 25° C., 100 mM phosphate buffer (pH 7.4); cited from earlier work

SMILES: CCN(CC)/[N+]([O-])=N/O.CCNCC [DEA NONOate, Diethylamine NONOate]
- half-life: 16 min
